system: Mtb H37Rv::luxCDAB; format: cell-based, Mycobacterium tuberculosis

SMILES	antibacterial activity against nonreplicating Mtb (in words, relative to AQA)
Cc1cccc(-c2nc(Nc3ccc4ncoc4c3)c3ccccc3n2)n1 [compound 8]	reduced bactericidal activity
Cc1cccc(-c2nc(Nc3ccc4[nH]ccc4c3)c3ccccc3n2)n1 [compound 18]	reduced bactericidal activity
Cc1cccc(-c2nc(Nc3ccc4ncccc4c3)c3ccccc3n2)n1 [compound 19]	reduced bactericidal activity
Cc1cccc(-c2nc(Nc3ccc4ncn(C)c4c3)c3ccccc3n2)n1 [compound 9]	reduced bactericidal activity
